The source made the active and inactive calls. No cut-off for these calls is given here.
System: Plasmodium falciparum
Assay: Growth inhibition at 24 hrs of Plasmodium falciparum 3D7 by [3H]hypoxanthine uptake
Format: functional, organism-based
Procedure, shortened: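 Synchronized ring-stage P. falciparum-infected RBCs incubated 24 h with a range of peptide concentrations, with OVA peptide as control. About 1 µCi [3H]hypoxanthine added per well and cultures kept a further 24 h. Cells harvested and incorporated label counted by scintillation.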

**Q.** For `CC[C@H](C)[C@H](NC(=O)[C@H](CCCCN)NC(=O)[C@@H](NC(=O)[C@H](CCC(N)=O)NC(=O)[C@@H](N)CCCNC(=N)N)[C@@H](C)CC)C(=O)N[C@@H](Cc1c[nH]c2ccccc12)C(=O)N[C@@H](Cc1ccccc1)C(=O)N[C@@H](CCC(N)=O)C(=O)N[C@@H](CC(N)=O)C(=O)N[C@@H](CCCNC(=N)N)C(=O)N[C@@H](CCCNC(=N)N)C(=O)N[C@@H](CCSC)C(=O)N[C@@H](CCCCN)C(=O)N[C@@H](Cc1c[nH]c2ccccc12)C(=O)N[C@@H](CCCCN)C(=O)N[C@@H](CCCCN)C(=O)O`, which Activity is on record?
**A.** inactive

From ChEMBL document CHEMBL1150347, “A prodomain peptide of Plasmodium falciparum cysteine protease (falcipain-2) inhibits malaria parasite development” (J Med Chem, 2008)
